Here are results for one substance from PMC6182140, “p15^PAF binding to PCNA modulates the DNA sliding surface” (Nucleic Acids Research, 2018).

Assay [1] concerns pol η–PCNA holoenzyme. Put plainly: DNA synthesis by pol η on undamaged template. The class given is biochemical, human. Conditions: undamaged template 10 nM; pol η alone or with PCNA; 37°C, pH 8. Here is the method:
(§1) The 24-mer template oligonucleotide containing the cis-PtGG adduct was a kind gift from S.J. Sturla (ETH, Zürich) and was prepared and purified as described previously (Nilforoushan, 2015). All other DNA oligonucleotides, all HPLC purified, were synthesized by Biomers.net (Germany). The 18mer primer oligonucleotide was 5′-labeled with carboxyfluorescin (FAM) group. The labeled primer was mixed to the complementary template oligonucleotide at 1:1 (M/M) ratio in the presence of 150 mM Hepes–KOH pH 7.4, 500 mM KCl, 10 mM MgCl2, 250 mM NH4Ac, heated at 95°C for 5 min and then slowly cooled at room temperature.
(§2) pJM879 ([33]), expressing N-terminal His-tagged human pol η, was a kind gift from R. Woodgate (NIH, USA). Human recombinant pol η was expressed and purified with a modified protocol: BL21 DE3 competent E. coli cells were transformed with pJM879. Plates containing […] kanamycin were used to identify kanamycin-resistant colonies that were picked and grown overnight at 37°C. DNA purified from bacterial cultures using NucleoSpin® Plasmid (NoLid) kit ([…]-NAGEL, Düren, Germany) was digested to confirm the presence of the gene expressing pol η. Transformed E. coli cells were used to inoculate a 50 ml starter culture. After overnight growth at 37°C, 12 ml of the starter culture were put into 1 l of LB medium (containing […] kanamycin). […]

The subject of another assay is DNA. On the set-up: method as in PMID 25762514. As to conditions: biochemically measured; cited from earlier work.
In assay [2] the test system is pol η–PCNA holoenzyme. As to the kind of experiment: TLS time course of pol η on cisPt(GG) template. The class given is biochemical, human. Conditions: cisPt(GG) template 10 nM, pol η 40 nM; p15 with equimolar PCNA (p15), 10-fold excess PCNA (PCNA), or pol η alone; pH 8, 37°C. Here is the method:
as §1, §2

In assay [3] the test system is pol η–PCNA holoenzyme. As to the kind of experiment: TLS by pol η on cis-Pt template in the presence of RF-C. The class given is biochemical, human. As to conditions: 50 µM dNTPs, 0.5 mM ATP, 150 nM ScRF-C, 400 nM pol η, 400 nM p15, 50 nM PCNA, 40 nM cis-Pt 18/24mer. How it is done:
Recombinant ScRF-C was obtained as a kind gift from the laboratory of Alessandro Costa (Francis Crick Institute), and was prepared following the procedure described in ([34]).
All reactions were performed in a 10 μl final volume using the following conditions: 40 mM Tris pH 8, 1 mM dithiotreitol (DTT), 0.25 mg/ml bovine serum albumin (BSA), 10 mM Mg^2+ (unless otherwise stated in the figures or figure legends). Reactions were incubated at 37°C for 15 min, unless otherwise stated. Reaction mixtures were stopped by addition of standard denaturing gel loading buffer (95% formamide, […], xylene cyanol and bromophenol blue), heated at 95°C for 5 min and loaded on a 7-M urea 12% polyacrylamide (PA) gel.
Inhibition of pol h activity by PCNA-p15 in the presence of RF-C. Pol h was tested on the 18/24mer primer-template substrate bearing a cis-Pt adduct at the two guanines at positions +1 and +2 of the template strand, in the presence of RF-C and in the absence (lanes 10-13) or in the […]
presence of PCNA (lanes 6-9) or PCNA and p15 (lanes 2-5). Reactant concentrations were: 50 […]
corresponding to incorporation opposite the two G's of the cis-Pt adduct, and a delay in the appearance of longer products, particularly at short incubation times (compare lanes 2,3 with […]
across a cis-Pt lesion even in the presence of RF-C. […]

As for “PCNA: Human PCNA (UniProt: P12004), Proliferating Cell Nuclear Antigen, homotrimeric sliding clamp”, the processivity result in the assay with pol η–PCNA holoenzyme [1] was “equal processivity”. Besides, the “DNA binding affinity of PCNA alone” value with DNA is listed as “no DNA binding affinity can be biochemically measured”. In addition, the “effect on lesion bypass / nucleotide incorporation” value with pol η–PCNA holoenzyme [2] is “did not significantly affect pol η activity”. Also, the “effect on TLS in the presence of RF-C” value with pol η–PCNA holoenzyme [3] is “did not significantly change the translesion synthesis products”.
